Source: patent US20230372337A1, “Combination Therapy Comprising an AXL Inhibitor” (BERGENBIO ASA, priority 2020, published 2023)

Assays:
Format in all cases: cell-based, mouse
LL2 cells = assay: qRTPCR of IFN related genes in Lewis lung carcinoma (LL2) cells in vitro (Example 4); details: IFNB 48 hours
Method: 4T1 cells (ATCC, CRL-2539) were cultured in RPMI-1640 (Sigma, Cat. #R8758) supplemented with 10% fetal bovine serum (FBS), L-glutamine (4 mM), streptomycin (5 μg/ml) and penicillin (5 U/ml). […] Lewis lung carcinoma cells LL/2 (LLC1) (ATCC, CRL-1642™) were cultured in Dulbecco's Modified Eagle's Medium ATCC® 30-2002™ (4 mM L-glutamine, 4500 mg/L glucose, 1 mM sodium pyruvate, and 1500 mg/L sodium bicarbonate).
RNA was extracted from snap frozen tumors using the RNEasy Microarray Tissue Mini kit from Qiagen following the manufacturer's instructions. As tumors contained Doxorubicin and powderizing them could expose personnel to harmful substances, the RNA was extracted in a closed system using the GentleMACS dissociator and M Tubes. Purity and concentration of RNA was measured using Nanodrop. […] The plates were analyzed using Light Cycler 480 (Roche) and data were analyzed using the Qiagen Data Analysis Centre and Graph Pad (Prism).
Chemotherapeutic agents commonly used to treat lung cancer patients were evaluated for effects on the IFN response. […] Sting agonist DMXAA, doxorubin and IFNB were also evaluated for comparison.
The IC50 of the different drugs were calculated by resazurin viability assay. […]

Yumm1.7 cells = assay: qRTPCR of IFN related genes in Yumm1.7 cells in vitro (Example 4); details: IFNB without bemcentinib
4T1 cells [1] = assay: RNA sequencing of 4T1 cells in vitro (Example 4); details: without supplemental Gas6
4T1 cells [2] = assay: qRTPCR of IFN related genes in 4T1 cells in vitro (Example 4); details: IFNB 48 hours, supplemental Gas6, N=24 ISG

B1: IFNB: interferon beta used for direct IFN stimulation of cells (protein, UniProt P01574 22-187, looked up)
Interferon beta: MSYNLLGFLQRSSNFQCQKLLWQLNGRLEYCLKDRMNFDIPEEIKQLQQFQKEDAALTIYEMLQNIFAIFRQDSSSTGWNETIVENLLANVYHQINHLKTVLEEKLEKEDFTRGKLMSSLHLKRYYGRILHYLKAKEYSHCAWTIVRVEILRNFYFINRLTGYLRN
ISG significantly upregulated (number) (LL2 cells): 6 | Fold changes of many ISG (Yumm1.7 cells): above 100 fold | IFN related gene expression by RNA sequencing (4T1 cells [1]): upregulated | ISG with increased expression, fold change above 2 (number) (4T1 cells [2]): 10
